Laboratory results from ChEMBL document CHEMBL5360651, “Progress on the Pharmacological Targeting of Janus Pseudokinases” (J Med Chem, 2023).

Sequences of proteins named here, by UniProt entry; tags and fusion partners are left off. A change or cut given only in a name is not applied to a line headed by its entry.
UniProt O60674: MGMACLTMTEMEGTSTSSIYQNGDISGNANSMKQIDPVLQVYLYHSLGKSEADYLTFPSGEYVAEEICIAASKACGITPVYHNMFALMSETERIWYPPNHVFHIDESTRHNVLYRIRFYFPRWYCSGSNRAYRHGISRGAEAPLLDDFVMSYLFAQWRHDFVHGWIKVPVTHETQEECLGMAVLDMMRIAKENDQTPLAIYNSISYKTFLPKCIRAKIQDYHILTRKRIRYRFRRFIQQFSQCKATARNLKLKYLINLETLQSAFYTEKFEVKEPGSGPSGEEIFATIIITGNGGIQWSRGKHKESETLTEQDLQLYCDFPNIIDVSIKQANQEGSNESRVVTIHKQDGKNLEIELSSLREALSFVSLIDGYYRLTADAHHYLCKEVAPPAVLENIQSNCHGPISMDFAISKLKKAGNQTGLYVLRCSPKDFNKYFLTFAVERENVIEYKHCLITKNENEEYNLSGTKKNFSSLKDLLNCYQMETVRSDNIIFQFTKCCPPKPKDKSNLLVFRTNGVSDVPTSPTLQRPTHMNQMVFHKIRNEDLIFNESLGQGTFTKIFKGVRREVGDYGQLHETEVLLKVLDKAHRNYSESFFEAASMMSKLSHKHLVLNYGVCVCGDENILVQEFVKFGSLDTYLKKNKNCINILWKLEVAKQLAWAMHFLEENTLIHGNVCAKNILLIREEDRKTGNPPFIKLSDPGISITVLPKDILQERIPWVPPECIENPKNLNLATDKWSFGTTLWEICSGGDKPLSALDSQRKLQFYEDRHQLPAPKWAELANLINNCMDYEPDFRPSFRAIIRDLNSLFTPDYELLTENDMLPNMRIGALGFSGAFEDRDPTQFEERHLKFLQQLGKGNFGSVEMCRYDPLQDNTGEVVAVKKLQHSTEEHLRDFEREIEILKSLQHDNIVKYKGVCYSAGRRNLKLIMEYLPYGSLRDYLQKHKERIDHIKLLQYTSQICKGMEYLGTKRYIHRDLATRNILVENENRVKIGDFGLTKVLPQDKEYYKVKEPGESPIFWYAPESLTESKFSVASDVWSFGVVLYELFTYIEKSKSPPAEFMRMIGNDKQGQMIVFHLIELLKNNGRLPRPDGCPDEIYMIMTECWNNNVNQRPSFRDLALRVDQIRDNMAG
UniProt P29597: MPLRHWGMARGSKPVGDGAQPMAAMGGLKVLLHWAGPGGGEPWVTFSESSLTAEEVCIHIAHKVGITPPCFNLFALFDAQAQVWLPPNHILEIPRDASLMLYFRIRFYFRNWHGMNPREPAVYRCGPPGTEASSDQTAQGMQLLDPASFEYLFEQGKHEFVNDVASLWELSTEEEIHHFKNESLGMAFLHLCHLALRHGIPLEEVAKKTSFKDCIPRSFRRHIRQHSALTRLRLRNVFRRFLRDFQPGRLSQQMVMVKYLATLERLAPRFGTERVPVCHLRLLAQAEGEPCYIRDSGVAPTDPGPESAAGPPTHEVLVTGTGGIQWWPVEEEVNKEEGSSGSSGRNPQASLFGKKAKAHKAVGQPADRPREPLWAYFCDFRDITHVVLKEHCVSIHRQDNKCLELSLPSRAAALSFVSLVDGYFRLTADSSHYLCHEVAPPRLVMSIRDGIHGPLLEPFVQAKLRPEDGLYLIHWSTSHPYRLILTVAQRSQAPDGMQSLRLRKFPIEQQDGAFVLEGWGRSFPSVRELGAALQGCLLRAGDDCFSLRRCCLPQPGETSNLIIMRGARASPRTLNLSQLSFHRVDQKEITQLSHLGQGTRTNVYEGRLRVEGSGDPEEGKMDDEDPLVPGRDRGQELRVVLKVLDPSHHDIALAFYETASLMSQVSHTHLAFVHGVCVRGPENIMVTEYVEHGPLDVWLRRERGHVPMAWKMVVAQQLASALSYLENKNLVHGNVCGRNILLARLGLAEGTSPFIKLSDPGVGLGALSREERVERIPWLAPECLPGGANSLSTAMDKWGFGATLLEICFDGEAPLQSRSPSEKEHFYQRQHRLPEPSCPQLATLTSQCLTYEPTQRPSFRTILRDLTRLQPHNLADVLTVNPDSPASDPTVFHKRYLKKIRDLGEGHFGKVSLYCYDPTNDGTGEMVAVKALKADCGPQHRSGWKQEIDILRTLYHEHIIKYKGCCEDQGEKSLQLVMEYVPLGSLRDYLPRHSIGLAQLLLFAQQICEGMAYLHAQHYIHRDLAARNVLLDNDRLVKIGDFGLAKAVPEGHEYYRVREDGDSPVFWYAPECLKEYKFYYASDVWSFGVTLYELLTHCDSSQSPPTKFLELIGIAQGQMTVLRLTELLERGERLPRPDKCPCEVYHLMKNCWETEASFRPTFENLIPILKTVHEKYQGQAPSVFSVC

Legend:
[1] = biological target: T1, Tyrosine-protein kinase JAK2 (Homo sapiens, UniProt O60674)
[2] = biological target: T1, Tyrosine-protein kinase JAK2; remark: listed apart in the source
[3] = biological target: T2, Non-receptor tyrosine-protein kinase TYK2 (Homo sapiens, UniProt P29597)
[4] = biological target: T2, Non-receptor tyrosine-protein kinase TYK2; format: cell-based, Sf9
[5] = biological target: T3, Tyrosine-protein kinase JAK3 (Homo sapiens, UniProt P52333)
T3 sequence (P52333 whole entry): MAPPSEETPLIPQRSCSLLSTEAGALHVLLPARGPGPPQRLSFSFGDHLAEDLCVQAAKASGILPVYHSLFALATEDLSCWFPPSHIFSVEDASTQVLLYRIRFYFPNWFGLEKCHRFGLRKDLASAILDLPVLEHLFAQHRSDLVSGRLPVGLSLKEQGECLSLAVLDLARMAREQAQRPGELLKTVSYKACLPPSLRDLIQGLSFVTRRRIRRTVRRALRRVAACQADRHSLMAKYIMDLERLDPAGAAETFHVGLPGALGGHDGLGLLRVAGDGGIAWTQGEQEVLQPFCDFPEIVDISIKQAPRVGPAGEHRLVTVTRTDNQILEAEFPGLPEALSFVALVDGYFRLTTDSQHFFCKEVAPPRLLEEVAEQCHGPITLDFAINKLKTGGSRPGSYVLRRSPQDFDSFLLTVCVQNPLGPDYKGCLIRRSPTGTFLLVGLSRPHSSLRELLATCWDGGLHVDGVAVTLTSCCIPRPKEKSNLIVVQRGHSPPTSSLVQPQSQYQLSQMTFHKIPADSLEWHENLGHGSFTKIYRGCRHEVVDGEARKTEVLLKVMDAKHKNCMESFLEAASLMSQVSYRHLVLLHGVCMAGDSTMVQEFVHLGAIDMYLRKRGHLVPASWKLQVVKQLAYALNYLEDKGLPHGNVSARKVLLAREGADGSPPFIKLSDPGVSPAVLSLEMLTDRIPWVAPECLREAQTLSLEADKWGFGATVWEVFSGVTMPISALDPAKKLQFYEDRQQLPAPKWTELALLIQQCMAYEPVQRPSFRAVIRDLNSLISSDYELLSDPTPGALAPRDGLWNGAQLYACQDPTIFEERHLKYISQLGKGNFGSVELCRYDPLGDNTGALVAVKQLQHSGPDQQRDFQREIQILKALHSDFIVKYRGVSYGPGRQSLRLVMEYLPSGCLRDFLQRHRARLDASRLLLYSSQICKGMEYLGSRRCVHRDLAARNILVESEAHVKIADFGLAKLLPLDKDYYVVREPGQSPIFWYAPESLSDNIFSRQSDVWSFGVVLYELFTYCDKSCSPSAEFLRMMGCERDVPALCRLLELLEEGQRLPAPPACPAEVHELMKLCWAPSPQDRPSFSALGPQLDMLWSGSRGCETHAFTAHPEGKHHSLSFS

c1nc2nc(Nc3ccc(N4CCOCC4)cc3)nc(NC3CCCCC3)c2[nH]1 [REVERSINE]
IC50 [1]: 680 nM
IC50 [2]: 680 nM
IC50 [3]: 120 nM
IC50 [4]: 120 nM
IC50 [5]: 300 nM
